Molecular target: T1, histamine H3 receptor (Rattus norvegicus, UniProt Q9QYN8)
T1 construct: gene Hrh3
Conditions: aorta rings

The chains behind the UniProt entries cited, without tags or fusion partners. Where a name states a change or a piece, a line headed by the entry shows the natural chain unless it says otherwise.
UniProt Q9QYN8: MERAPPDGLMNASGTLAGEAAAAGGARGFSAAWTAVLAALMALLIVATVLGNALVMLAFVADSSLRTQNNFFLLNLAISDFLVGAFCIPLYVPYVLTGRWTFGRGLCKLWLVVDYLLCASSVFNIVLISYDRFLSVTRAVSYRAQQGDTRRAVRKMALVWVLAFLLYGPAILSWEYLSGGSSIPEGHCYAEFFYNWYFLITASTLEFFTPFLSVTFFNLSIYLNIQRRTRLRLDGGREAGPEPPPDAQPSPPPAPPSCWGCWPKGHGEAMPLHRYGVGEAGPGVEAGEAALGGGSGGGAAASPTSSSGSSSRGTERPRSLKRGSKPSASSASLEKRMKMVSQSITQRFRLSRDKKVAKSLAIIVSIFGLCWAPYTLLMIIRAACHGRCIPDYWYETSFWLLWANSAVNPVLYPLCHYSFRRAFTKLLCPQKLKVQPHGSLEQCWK

Question: How did the Kb turn out when `S=C(NC1CCCCC1)N1CCC(c2cnc[nH]2)CC1` [thioperamide] was run?
Answer: The Kb was 0.617 nM.
